{"sequences": {"note": "Protein sequences, listed by entry. Tags and fused reporters are not part of them. Lines headed by an entry give the natural chain unless they say otherwise; changes in a name come on top.", "UniProt P41145": "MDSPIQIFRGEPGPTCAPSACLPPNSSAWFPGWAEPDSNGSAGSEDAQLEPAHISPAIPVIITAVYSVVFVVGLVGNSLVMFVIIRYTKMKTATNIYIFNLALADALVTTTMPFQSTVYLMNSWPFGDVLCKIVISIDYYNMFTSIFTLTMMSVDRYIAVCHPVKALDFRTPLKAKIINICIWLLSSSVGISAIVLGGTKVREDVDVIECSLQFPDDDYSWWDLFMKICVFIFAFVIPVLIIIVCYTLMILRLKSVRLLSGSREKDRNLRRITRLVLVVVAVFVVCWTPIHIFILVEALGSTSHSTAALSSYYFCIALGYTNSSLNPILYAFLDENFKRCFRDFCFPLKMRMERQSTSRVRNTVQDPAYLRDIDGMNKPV"}, "source": "patent US11912716B2", "about": "(priority 2018, dated 2024)", "key": {"ICR mice": {"system": "ICR mice", "test": "mouse rotarod model, sedative effect (Example 11)", "conditions": "U50488 5 mg/kg intraperitoneal"}, "κ opioid receptor": {"target": "κ opioid receptor (Homo sapiens (Human), UniProt P41145)", "test": "radioligand-receptor binding assay, 3H-U69593 displacement", "conditions": "read-out: κ binding affinity Ki; CHO cell membranes, 1.4-1.5 nM 3H-U69593"}}, "data": [{"substance": "(±)-trans-U50488", "values": [{"measurement": "retention time on the rotarod, 30 min after administration", "setting": "ICR mice; 30 min", "value": "100.7 ± 23.9", "unit": "s"}, {"measurement": "sedative effect (in words)", "setting": "ICR mice; 30 minutes after administration", "value": "significant sedative effect"}, {"measurement": "retention time on the rotarod, 60 min after administration", "setting": "ICR mice; 60 min", "value": "181.2 ± 1.966", "unit": "s"}, {"measurement": "retention time on the rotarod, 120 min after administration", "setting": "ICR mice; 120 min", "value": "223.7 ± 11.7", "unit": "s"}, {"measurement": "Ki", "setting": "κ opioid receptor", "value": 2.19, "unit": "nM"}]}]}
